{
  "source": "patent US8263631B2",
  "about": "“Anti-cancer pharmaceutical compositions and methods for treating patients with cancer” (Daiichi Sankyo Company, Limited, priority 2006, dated 2012)",
  "test_system": "human non-small-cell lung cancer line A549",
  "assay": "In vitro cell proliferation inhibitory activity, combination with VEGFR and Raf kinase inhibitor",
  "type": "cell-based",
  "conditions": "A549, 144 h, read-out: Proliferation inhibition rate",
  "method": "Human non-small-cell lung cancer line A549 cells were inoculated on a 96-well plate at 5×10^2 cells/well, and at the same time, agents of various concentrations dissolved in DMSO were added so that the concentration of DMSO became 0.1%. […] After addition of the drugs, the cells were cultivated in the presence of 5% carbon dioxide at 37° C. for 6 days. Then, Cell Titer 96 Aqueous One Solution Reagent (Promega Corp.) was added at 40 μl/well each, and then absorbance A490 of each well was measured using MICROPLATE READER (Bio-Rad Laboratories, Inc.).",
  "data": [
    {"smiles": "CNC(=O)c1cc(Oc2ccc(NC(=O)Nc3ccc(Cl)c(C(F)(F)F)c3)cc2)ccn1", "note": "[Sorafenib, sorafenib, reference compound]", "values": [
      {"measurement": "inhibition at 5 µM", "result": 47, "unit": "%"}
    ]}
  ]
}
